PubChem BioAssay (NCI)
Values joined by “and” are separate entries in the source; they are usually repeats but may differ in a detail not shown here. Equal values may be shown once.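 A five-concentration, 48-hour dose response in 96-well plates underlies each endpoint, interpolated linearly between surrounding concentrations. GI50 marks 50% less growth. TGI: concentration producing complete growth inhibition.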

Key:
Assay in all cases: NCI-60 cell line screen, 48 h
COLO 205 colon = test system: COLO 205 colon
NCI-H23 lung = test system: NCI-H23 lung
BT-549 breast = test system: BT-549 breast
NCI-H460 lung = test system: NCI-H460 lung
HS 578T breast = test system: HS 578T breast
SK-MEL-28 melanoma = test system: SK-MEL-28 melanoma
HCT-15 colon = test system: HCT-15 colon
SK-MEL-5 melanoma = test system: SK-MEL-5 melanoma
MALME-3M melanoma = test system: MALME-3M melanoma
TK-10 renal = test system: TK-10 renal
ACHN renal = test system: ACHN renal
HT29 colon = test system: HT29 colon
786-0 renal = test system: 786-0 renal
EKVX NSCLC = test system: EKVX NSCLC
SF-539 CNS = test system: SF-539 CNS
IGROV1 ovarian = test system: IGROV1 ovarian
OVCAR-5 ovarian = test system: OVCAR-5 ovarian
KM12 colon = test system: KM12 colon
RXF 393 renal = test system: RXF 393 renal
CAKI-1 renal = test system: CAKI-1 renal
DU-145 prostate = test system: DU-145 prostate
UACC-62 melanoma = test system: UACC-62 melanoma
HOP-62 NSCLC = test system: HOP-62 NSCLC
HCC-2998 colon = test system: HCC-2998 colon
SF-268 CNS = test system: SF-268 CNS
T-47D breast = test system: T-47D breast
SF-295 CNS = test system: SF-295 CNS
OVCAR-4 ovarian = test system: OVCAR-4 ovarian
U251 CNS = test system: U251 CNS
SW-620 colon = test system: SW-620 colon
LOX IMVI melanoma = test system: LOX IMVI melanoma
SNB-19 CNS = test system: SNB-19 CNS
M14 melanoma = test system: M14 melanoma
SK-OV-3 ovarian = test system: SK-OV-3 ovarian
SNB-75 CNS = test system: SNB-75 CNS

Compound: O=C1c2c(O)ccc(O)c2C(=O)c2c(NCCNCCO)ccc(NCCNCCO)c21
- GI50 (COLO 205 colon): 89.7 nM and 164 nM
- GI50 (NCI-H23 lung): 17.2 nM and 39.5 nM and 66.4 nM
- TGI (NCI-H23 lung): 488 nM and 911 nM and 1110 nM
- GI50 (BT-549 breast): 247 nM
- GI50 (NCI-H460 lung): < 5 nM
- GI50 (HS 578T breast): 28.4 nM and 166 nM and 92.8 nM
- GI50 (SK-MEL-28 melanoma): 252 nM
- GI50 (HCT-15 colon): 133 nM and 253 nM and 283 nM
- GI50 (SK-MEL-5 melanoma): 33.6 nM
- GI50 (MALME-3M melanoma): 94.3 nM
- GI50 (TK-10 renal): 79.2 nM
- GI50 (ACHN renal): 19.5 nM
- GI50 (HT29 colon): 83.4 nM
- GI50 (786-0 renal): < 10 nM and 21.4 nM and 21.5 nM
- GI50 (EKVX NSCLC): 1280 nM and 289 nM
- GI50 (SF-539 CNS): 21.4 nM and 21.7 nM
- GI50 (IGROV1 ovarian): 91.5 nM and 82.1 nM and 185 nM
- GI50 (OVCAR-5 ovarian): 83.5 nM and 206 nM and 308 nM
- GI50 (KM12 colon): 220 nM and 330 nM
- GI50 (RXF 393 renal): 54.8 nM
- GI50 (CAKI-1 renal): 17.8 nM and 78 nM
- TGI (CAKI-1 renal): 9940 nM
- GI50 (DU-145 prostate): 18.3 nM
- GI50 (UACC-62 melanoma): 17.2 nM and 33.4 nM and 38.6 nM
- GI50 (HOP-62 NSCLC): 9.3 nM
- GI50 (HCC-2998 colon): 87.8 nM and 153 nM and 238 nM
- GI50 (SF-268 CNS): 13.6 nM and 25.5 nM and 28.7 nM
- GI50 (T-47D breast): 26.8 nM
- GI50 (SF-295 CNS): < 10 nM and 15.3 nM and 21.1 nM
- GI50 (OVCAR-4 ovarian): 136 nM
- GI50 (U251 CNS): 15.3 nM
- GI50 (SW-620 colon): 64 nM
- GI50 (LOX IMVI melanoma): 18.2 nM
- GI50 (SNB-19 CNS): 18.9 nM
- GI50 (M14 melanoma): 56.9 nM
- GI50 (SK-OV-3 ovarian): 27.3 nM
- GI50 (SNB-75 CNS): 42.6 nM
